As a reminder, the Km is the substrate concentration at which the rate is half of its maximum.

Sequences of proteins named here, by UniProt entry; tags and fusion partners are left off.
UniProt Q0SK70, entry or part of it: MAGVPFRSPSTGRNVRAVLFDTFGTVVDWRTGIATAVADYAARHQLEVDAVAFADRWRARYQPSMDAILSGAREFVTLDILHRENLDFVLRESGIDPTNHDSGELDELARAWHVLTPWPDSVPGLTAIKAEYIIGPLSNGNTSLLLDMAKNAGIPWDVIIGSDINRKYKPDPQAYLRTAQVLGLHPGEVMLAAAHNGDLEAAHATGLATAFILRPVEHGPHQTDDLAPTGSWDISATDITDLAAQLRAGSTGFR
UniProt A0A926DHK7, entry or part of it: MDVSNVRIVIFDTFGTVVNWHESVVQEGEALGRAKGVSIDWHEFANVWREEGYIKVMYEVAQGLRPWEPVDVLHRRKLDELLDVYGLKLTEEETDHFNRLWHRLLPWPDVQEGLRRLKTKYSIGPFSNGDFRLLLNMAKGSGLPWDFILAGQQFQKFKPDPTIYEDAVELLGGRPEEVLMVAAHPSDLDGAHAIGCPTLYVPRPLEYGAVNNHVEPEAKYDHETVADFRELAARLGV

Experimental findings from article PMC12184663 (Proceedings of the National Academy of Sciences of the …, 2025) are described below.

Test [1] deals with T1, P5 (HAD from R. jostii RHA1, Rha0230) (Rhodococcus jostii, UniProt Q0SK70).
T1 construct: gene RHA1_ro00230

For another test, the system named is T2, P3.
T2 construct: gene haloacid dehalogenase type II
The note with it: Tris-SO4 pH 8.5 (100 mM; 300 mM at 20-100 mM substrate), 37 °C, 0.5 mg/mL enzyme.

The target of test [2] is T3, P6 (WP_178618037, Guopingia tenuis) (Guopingia tenuis, UniProt A0A926DHK7).
T3 construct: gene H8693_03100
Conditions: 1 mM substrate, 100 mM Tris-SO4 pH 8.5, 37 °C.

SMILES strings stand for the structures.

Regarding `O=C(O)C(F)F` [DFA, difluoroacetate], the ion chromatography entry in test [1] is “three enzymes (P2, P3, and P5) capable of defluorinating DFA”. For the compound `O=C(O)CF` [FAc, fluoroacetate], in the test with P3, the Km was determined as 59.8 ± 7.7 mM. Besides, in test [2], the “ion chromatography of fluoride and glycolate” value is “The remaining four enzymes hydrolyzed fluoroacetate, producing fluoride ion and glycolate stoichiometrically”.
